Sequences of proteins named here, by UniProt entry; tags and fusion partners are left off.
ATP-dependent Clp protease proteolytic subunit (Bacillus subtilis (strain 168)), P80244, UniProt P80244, whole entry, looked up: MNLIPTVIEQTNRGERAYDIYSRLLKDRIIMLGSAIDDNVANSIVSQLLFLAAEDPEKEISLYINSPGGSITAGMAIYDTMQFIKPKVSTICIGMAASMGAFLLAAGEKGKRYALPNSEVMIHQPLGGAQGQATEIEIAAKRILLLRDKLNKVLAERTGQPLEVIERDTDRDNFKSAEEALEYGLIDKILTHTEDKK

# Rows were chosen to be rich in hits. Some 3.7% of all compounds tested hit in one or more screens of this group.
# Nrf2 block: Nrf2 pathway inhibition | AID 504444 | hit rate 2.1% among 360,000 | A549 ARE-Fluc reporter, luciferase luminescence, 18-24 h | Potency, µM (titrated, usually from 46 µM), for inactives: top-dose activity change, negative = inhibition, most hits filed as inhibitors; also: potency is read from the fitted curve at half-maximal effect; % is scaled to controls: 0 for no effect and ±100 for the full control effect; nearly all actives have a fitted effect of over 60% in size
#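 Quantitative HTS in A549 cells stably bearing an antioxidant response element-firefly luciferase construct. Inhibition of Nrf2-driven transcription was scored by luminescence after 18-24 h of compound exposure at 37 °C.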
# Nrf2 ARE act: activates Nrf2 signaling; AID 624171; hit rate 0.31% among 410,000; Potency, µM (doses to about 46.1 µM), without a hit: at the highest dose activation, most hits filed as activators; AREc32 ARE-luciferase reporter (MCF7-derived line), luminescence, 24 h; also: potency is read from the fitted curve at half-maximal effect; % of control where 0% means no effect; nearly all actives have a fitted effect of over 65% in size
#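 For detection, Steady-Glo was added and plates sat 30 min at RT; before that, AREc32_Fluc cells grown overnight in OPTI-MEM/5% FBS had been treated with 23 nL compound for 24 hr at 37 deg C.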
# IL2 activator: activators of IL-2 | IL-2 activation reporter assay, cell-based qHTS; stimulated with anti-CD3/CD4/CD28 beads; in transgenic mouse T cells | activation, % (series mostly up to about 46 µM) | hit rate 0.065% among 360,000 | AID 652025; in the data active = activation above about 50%; inconclusive = mostly about 30% to 49%; also: 0% is about no effect
#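 Unstimulated transgenic mouse T cells; 60-min compound exposure; bead-based TCR/CD4/CD28 stimulation; 18 h culture, 37 degrees C; dual fluorescence (EGFP, DsRed) plate cytometry.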
# A549 viability: A549 cytotoxicity, counter-screen for Nrf2 inhibitors | A549 ARE-Fluc cells, CellTiter-Fluor viability, 18-24 h | Potency, µM (series often up to 46 µM), inactives show at the highest dose activity change, negative = cytotoxicity, most hits filed as inhibitors | hit rate 0.16% among 390,000; also: potency is read from the fitted curve at half-maximal effect; % is scaled to controls: 0 for no effect and ±100 for the full control effect
#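 Cytotoxicity counterscreen: CellTiter-Fluor fluorescence was measured in A549 ARE_Fluc cells after 18-24 h of compound exposure in a concentration series. The subsequent BugLite luminescent read reports ARE-luciferase activity.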
# ClpP mod: qHTS Assay for Activators of ClpP; ATP-dependent Clp protease proteolytic subunit (Bacillus subtilis (strain 168)), P80244; purified B. subtilis ClpP, FRET peptide cleavage, 20 min; Potency, µM (highest dose often 57.5 µM), for inactives: at the top dose activity change, negative = active; hit rate 1.9% among 340,000; AID 651965, 2013; active = well fitted falling curve with a large enough effect; inconclusive = small, poorly fitted or top-dose-only effect; inactive = no such curve, though single readings can be large or run the other way; also: potency is read from the fitted curve at half-maximal effect; the source files actives as falling curves though it sought activators and does not explain the sign; nearly all actives have a fitted effect of over 65% in size
#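 FRET quenching reversal measured ClpP activation: 10 microg/mL B. subtilis ClpP at pH 8 with the FRET-FV decapeptide, read at 430 nm after 320 nm excitation. The 20-min minus 0-min signal was scaled between DMSO/no-enzyme wells and ADEP (5.8 microM final).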
# miR-21 reporter: raises the signal of a miR-21 reporter; HeLa miR-21 FLuc reporter, luciferase, 48 h; Potency, µM (top dose mostly 38.3 µM), for inactives: at the highest dose reporter change, positive = more light; AID 2288; 340,000 tested, under 10 active; active = well fitted rising curve with a large enough effect; inconclusive = small, poorly fitted or top-dose-only effect; inactive = no such curve, though single readings can be large or run the other way;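 note: % of control where 0% means no effect; miR-21 action dims this reporter so a rising signal means less miR-21 action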
#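 HeLa cells stably expressing CMV-driven firefly luciferase with a downstream miR-21 binding sequence, endogenously expressing miR-21, were treated with titrations (up to about 40uM final) for 48 hours at 37 degree Celsius. Luciferase luminescence was read after lysis.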
# * hit, by the source's call; u = inconclusive; x = not tested or not shown; [ ] = another dose, or the depositor's remark. Unless noted, calls follow the shape of the dose curve; as a rule, active = well fitted curve in the direction sought with a large enough effect; inconclusive = small, poorly fitted or top-dose-only effect, or another doubt; inactive = no such curve, though single readings can be large; an effect the other way counts as inactive or inconclusive.
no.	SMILES	ClpP mod	miR-21 reporter	A549 viability
1	COc1ccc(N2CCN(C(=O)c3cc(S(=O)(=O)N4CCC(C)CC4)cn3C)CC2)cc1	0%	-11%	-1%
2	Cc1ccc(CN(C(=O)COc2ccc(C(C)C)cc2)C2CCS(=O)(=O)C2)o1 (stereo not drawn)	-3%	11%	10%
3	COc1cc(NC(=O)CNc2cccc(S(=O)(=O)N3CCCC3)c2)cc(OC)c1	-3%	19%	-12%
4	CN(CC(=O)Nc1cccc(F)c1)CC(=O)Nc1cc(S(=O)(=O)N2CCOCC2)ccc1Cl	-2%	x	-4%
5	O=C(CNc1ccc(Br)cc1)Nc1ccc(S(=O)(=O)N2CCCC2)cc1	-2%	x	-5%
6	CN(CC(=O)Nc1cccc(S(=O)(=O)N2CCOCC2)c1)CC(=O)Nc1ccc(Cl)c(C(F)(F)F)c1	1%	x	u
7	O=C(CNc1ccc(Br)cc1)Nc1cccc(S(=O)(=O)N2CCCC2)c1	1%	x	u
8	COc1ccc(NCC(=O)Nc2cccc(S(=O)(=O)N3CCCC3)c2)cc1Cl	-1%	x	-21%
9	Cc1ccc(C(=O)Nc2nnc(S(=O)(=O)N(C)Cc3ccc(Cl)cc3)s2)cc1	-9%	-1%	1%
10	O=C(c1ccccc1O)N(Cc1ccccc1)Cc1ccccc1	x	x	4%
11	CCN(C(C)=O)c1cnc(C=NNC(N)=S)c2ccccc12	-4%	x	u
12	Cc1cc(NC(=O)Nc2cc(Cl)sc2Cl)no1	0%	-22%	2%
13	Cc1cc(NC(=O)Nc2ccccc2Cl)no1	2%	-31%	1%
14	CN(C)S(=O)(=O)c1ccc2c(c1)N(CC(=O)N1CCN(c3ccc(F)cc3)CC1)CCS2	-13%	5%	0%
15	c1ccc(CNc2ncnc3c2cnn3-c2ccccc2)cc1	u	-12%	-23%

no.	Nrf2 block	IL2 activator	Nrf2 ARE act
1	x	x	6%
2	6%	x	5%
3	u	0	-1%
4	u	0	3%
5	-20%	-4	0%
6	21µM*	-6	3%
7	21µM*	0	0%
8	18µM*	0	1%
9	u	x	0%
10	3%	x	x
11	8.2µM*	-5	2%
12	-24%	-7	3.2µM*
13	u	0	6%
14	x	x	0%
15	-9%	-1	0%

# Gathered by group, those above with bromine.
no.	SMILES	ClpP mod	miR-21 reporter	A549 viability
5	O=C(CNc1ccc(Br)cc1)Nc1ccc(S(=O)(=O)N2CCCC2)cc1	-2%	x	-5%
7	O=C(CNc1ccc(Br)cc1)Nc1cccc(S(=O)(=O)N2CCCC2)c1	1%	x	u

no.	Nrf2 block	IL2 activator	Nrf2 ARE act
5	-20%	-4	0%
7	21µM*	0	0%

# Going on with the list:
no.	SMILES	ClpP mod	miR-21 reporter	A549 viability
16	c1ccc(-n2ncc3c(NCc4ccccn4)ncnc32)cc1	13µM*	-38%	-1%
17	Cc1cccc(-n2ncc3c(NCc4ccccn4)ncnc32)c1	u	-53%	-2%
18	Fc1ccc(CNc2ncnc3c2cnn3-c2ccccc2)cc1	35µM*	-18%	0%
19	Cc1ccc(-n2ncc3c(NCCc4ccccc4)ncnc32)cc1C	28µM*	10%	6%
20	CCN(CC)S(=O)(=O)c1cccc(C(=O)Nc2sc3c(c2C#N)CCC(C)C3)c1 (stereo not drawn)	3%	-10%	-1%
21	Cc1cc(C)c(Nc2nn3c(=O)c4cc5c(cc4nc3s2)OCO5)c(C)c1	0%	-13%	0%
22	Cc1ccccc1Nc1c(-c2c(F)cccc2Cl)nc2ccc(Br)cn12	0%	8%	1%
23	CCOC(=O)C1=C(c2ccccc2)NC(SCC(=O)Nc2ccc(C)cc2)=C(C#N)C1c1ccco1 (stereo not drawn)	u	28%	-17%[1.84 µM]
24	CCOC(=O)C1=C(c2ccccc2)NC(SCC(=O)Nc2cccc(C)c2)=C(C#N)C1c1ccco1 (stereo not drawn)	u	22%	13µM*
25	CCOC(=O)C1=C(c2ccccc2)NC(SCC(=O)Nc2ccccc2C)=C(C#N)C1c1ccco1 (stereo not drawn)	-13%	19%	x

no.	Nrf2 block	IL2 activator	Nrf2 ARE act
16	5%	4	4%
17	x	0	2%
18	x	0	2%
19	x	x	1%
20	-29%	x	-1%
21	12%[9.27 µM]	x	-1%
22	7%	x	6%
23	21µM*	0	0%
24	u	-3	1%
25	u	-2	1%

# Nrf2 ARE act, hit marks shown above
entry	Molecule	ClpP mod	miR-21 reporter	Nrf2 block	IL2 activator	Nrf2 ARE act
12	Cc1cc(NC(=O)Nc2cc(Cl)sc2Cl)no1	0%	-22%	-24%	-7	3.2µM*

# Source: PubChem
